Assay: Rat PK study: plasma concentrations of zoledronic acid after IV, oral gavage or intraduodenal (ID) dosing, LC/MS/MS
Assay type: in vivo, Sprague-Dawley Rats
Description: USA. […] Surgical catheters (jugular vein) were implanted prior to the study. […] IV Administration: the dose of zoledronic acid for IV administration was 0.5 mg/kg. […] Oral gavage administration: solid suspensions were administered. […] For solid suspensions, animals were administered 5 mg/kg of zoledronic acid or 5 mg/kg of zoledronic acid in zoledronic acid complexes contained in a suspension of PEG 400. • iii. Duodenal cannula administration: solid suspensions were administered. […] For solid suspensions, animals were administered 5 mg/kg of zoledronic acid or 5 mg/kg of zoledronic acid in zoledronic acid complexes contained in a suspension of PEG 400. […] Group I (IV administration). Group members, designated IV doses are listed below IV comparator group, was conducted to calculate MAT (mean absorption time) and ka (absorption rate constant) for the oral groups. Group II (oral gavage): Group designations and oral doses are listed below: Group III (ID administration): Group designations and oral doses are listed below: Group IV (oral gavage): Group designations and oral doses are listed below: […]

- Average plasma concentration of 3 Rats (ID (duodenal cannula) 5 mg/kg zoledronic acid equivalent, PEG 400, time 0.25 hour): 39.99 ng/mL
- Average plasma concentration of 3 Rats (ID (duodenal cannula) 5 mg/kg zoledronic acid equivalent, PEG 400, time 1 hour): 18.50 ng/mL
- Average plasma concentration of 3 Rats (ID (duodenal cannula) 5 mg/kg zoledronic acid equivalent, PEG 400, time 4 hour): 0.71 ng/mL
- Average plasma concentration of 3 Rats (ID (duodenal cannula) 5 mg/kg zoledronic acid equivalent, PEG 400, time 8 hour): 0.00 ng/mL
- Average plasma concentration of 3 Rats (ID (duodenal cannula) 5 mg/kg zoledronic acid equivalent, PEG 400, time 24 hour): 0.00 ng/mL
- Average plasma concentration of 3 Rats (PO gavage 5 mg/kg zoledronic acid equivalent, PEG 400, time 0.25 hour (Table 1)): 278.47 ng/mL
- Average plasma concentration of 3 Rats (PO gavage 5 mg/kg zoledronic acid equivalent, PEG 400, time 0.5 hour (Table 1)): 280.20 ng/mL
- Average plasma concentration of 3 Rats (PO gavage 5 mg/kg zoledronic acid equivalent, PEG 400, time 1 hour (Table 1)): 171.59 ng/mL
- Average plasma concentration of 3 Rats (PO gavage 5 mg/kg zoledronic acid equivalent, PEG 400, time 4 hour (Table 1)): 13.42 ng/mL
- Average plasma concentration of 3 Rats (PO gavage 5 mg/kg zoledronic acid equivalent, PEG 400, time 8 hour (Table 1)): 1.78 ng/mL
- Average plasma concentration of 3 Rats (PO gavage 5 mg/kg zoledronic acid equivalent, PEG 400, time 24 hour (Table 1)): 0.00 ng/mL
Substance: Zoledronic Acid, Sodium Zoledronic Salt, and Water Complex

Reference: US10195218B2, “Crystallization method and bioavailability” (GRUNENTHAL GMBH, priority 2016, dated 2019)
